Source: patent US8685394B2, “Combination of anti-CTLA4 antibody with diverse therapeutic regimens for the synergistic treatment of proliferative diseases” (Bristol-Myers Squibb Company, priority 2008, dated 2014)

Test system: in vivo cytotoxicity
Conditions: FIG. 12

4′-Demethylepipodophyllotoxin 9-[4,6-O-(R)-ethylidene-β-D-glucopyranoside], 4′-(dihydrogen phosphate) [Etoposide]
in vivo cytotoxicity: promote in vivo cytotoxicity
